In ChEMBL document CHEMBL1135196, “4-Aminoarylguanidine and 4-aminobenzamidine derivatives as potent and selective urokinase-type plasminogen activator inhibitors” (Bioorg Med Chem Lett, 2002):

Biological target: Urokinase-type plasminogen activator (Homo sapiens, UniProt P00749)

For `N=C(N)c1ccc(NC(=O)c2cc(Br)ccc2O)cc1`, which Ki is on record?
Its Ki is 8 µM.
